For one molecule, Km results are on record in article PMC10638397, “Engineering sulfonate group donor regeneration systems to boost biosynthesis of sulfated compounds” (Nature Communications, 2023).

Structures are written as SMILES.

The assay deals with T1, chondroitin 4-O-sulfotransferase (C4ST).
T1 construct: gene Chst11; recombinant
The assay can be described thus: sulfotransferase kinetics, HPLC-MS. The assay is classed as biochemical. From the text:
sulfotransferase kinetics, HPLC-MS on chondroitin 4-O-sulfotransferase (C4ST)

Take `Nc1ncnc2c1ncn2[C@@H]1O[C@H](COP(=O)(O)OS(=O)(=O)O)[C@@H](O)[C@H]1O` [APS]: the Km (as a rule, the substrate concentration at which the rate is half of its maximum) worked out at 2.65 ± 0.52 mM.
